For one compound, LD50 results are on record in the CATMoS acute toxicity set (Mansouri et al. 2021).

The series is described as follows: rat acute oral toxicity. The note with it: in vivo.

The structures appear in SMILES notation. Some of these compounds have results that are not shown, active ones among them.

Usually LD50 stands for the dose at which mortality reaches 50%. For `N#CC(C#N)=Cc1ccccc1Cl`, the LD50 is 178 mg/kg.
